Assays:
[1] = target: endothelin-converting enzyme (ECE) (Homo sapiens, UniProt P42892); assay: Fluorimetric ECE activity assay with fluorescent peptide substrates (96-well plates); conditions: read-out: Km (affinity constant of the enzyme for a substrate); 50 mM Tris-maleate buffer, pH 6.5; calculated using the ENZFITTER program
Method: Various preparations containing ECE can be used, such as, for example, recombinant human ECE-1c expressed in Cos-1 cells (Shimada et al., J. Biol. Chem. (1994) 269, 18275–18278) or CHO cells (Xu et al. Cell (1994) 78, 473–485).
In all cases, the presence of the enzyme is tested by Western blotting using an antibody and its concentration is evaluated by comparison with the purified enzyme.
The ECE activity is determined in 96-well plates, generally under the following conditions:
100 μl of 50 mM Tris-maleate buffer, pH 6.5, 20 μM or 5 μM of fluorescent peptide 1s or 2s and 10 μl of a solution of ECE diluted as a function of its purity and such that the cleavage of the fluorescent substrate remains less than 5%. […] The reaction is stopped in various ways, for example heating to 90° C., abrupt cooling to 4° C., adding an organic solvent such as dioxane to 20% of the final volume, and then the reading is performed using a fluorimeter (λex=340 nm; λem=400 nm) optionally coupled to the automated analysis system. The use of a network fluorimeter considerably further increases the sensitivity of the assay by reading the fluorescence at 377 nm. […]
The KI values for the inhibitors can be determined automatically using the degradation percentages at various concentrations and comparison with a standard range. […]

Sequences of proteins named here, by UniProt entry; tags and fusion partners are left off. Residues count along the entry.
UniProt P42892, 1-754 isoform 3: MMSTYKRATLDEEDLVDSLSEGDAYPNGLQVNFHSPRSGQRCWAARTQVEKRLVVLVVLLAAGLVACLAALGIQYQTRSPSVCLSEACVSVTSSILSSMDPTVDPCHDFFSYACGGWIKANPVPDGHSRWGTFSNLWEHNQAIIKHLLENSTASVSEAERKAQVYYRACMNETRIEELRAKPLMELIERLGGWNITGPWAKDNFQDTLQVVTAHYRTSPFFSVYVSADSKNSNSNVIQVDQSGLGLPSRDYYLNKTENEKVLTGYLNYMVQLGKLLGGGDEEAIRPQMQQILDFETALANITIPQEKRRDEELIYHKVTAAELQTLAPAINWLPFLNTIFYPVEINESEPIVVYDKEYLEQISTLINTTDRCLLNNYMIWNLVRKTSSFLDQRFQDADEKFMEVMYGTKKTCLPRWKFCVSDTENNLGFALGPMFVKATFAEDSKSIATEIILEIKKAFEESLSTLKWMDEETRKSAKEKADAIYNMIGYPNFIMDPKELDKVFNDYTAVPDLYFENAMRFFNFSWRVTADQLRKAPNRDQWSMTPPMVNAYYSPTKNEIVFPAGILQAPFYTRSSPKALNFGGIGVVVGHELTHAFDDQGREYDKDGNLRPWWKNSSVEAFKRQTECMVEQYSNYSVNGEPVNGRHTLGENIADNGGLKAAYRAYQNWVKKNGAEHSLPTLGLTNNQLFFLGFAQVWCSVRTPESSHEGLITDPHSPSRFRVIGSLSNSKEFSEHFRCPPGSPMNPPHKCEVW

ECE = ECE (Homo sapiens, UniProt P42892); assay: HPLC analysis of products formed on incubation with ECE; conditions: single cleavage at the PyA-pNF peptide bond

With CSCC[C@H](NC(=O)[C@H](CC(C)C)NC(=O)CNC(=O)[C@H](Cc1ccc([N+](=O)[O-])cc1)NC(=O)[C@H](Cc1ccc2ccc3cccc4ccc1c2c34)NC(=O)[C@H](CCC(N)=O)NC(=O)[C@H](CCC(N)=O)NC(=O)[C@@H]1CCCN1C(=O)[C@H](CCCCN)NC(=O)[C@@H]1CCCN1C(=O)[C@H](CCCNC(=N)N)NC(C)=O)C(N)=O the Km [1] was 2 µM and the “metabolites produced when incubated with ECE” value (ECE) was “only two metabolites”.
